{
  "source": "patent US5385842A",
  "about": "“Anthraquinones as inhibitors of sulfide production from sulfate-reducing bacteria” (E. I. Du Pont de Nemours and Company, priority 1993, dated 1995)",
  "test_system": "Desulfovibrio desulfuricans G100A",
  "conditions": "<10 ppm in 2.7% EtOH (not totally soluble at 30 ppm in 8% EtOH before 3x dilution)",
  "data": [
    {"compound": "O=C1c2ccccc2C(=O)c2c1cccc2[As](=O)(O)O", "values": [
      {"measurement": "% Inhib. (inhibition of sulfide production)", "value": 18.2, "unit": "%"}
    ]}
  ]
}
